Experimental data: EP4796557A1, “POLYPEPTIDE, BIOACTIVE CONJUGATE, AND PREPARATION METHOD THEREFOR AND USE THEREOF” (priority 2023, dated 2025)

Experiments:
[1] = test system: JIMT-1 cells; assay: In vitro killing assay of the anti-Her2-ADC against JIMT-1 tumor cells (CTG); format: cell-based; settings: JIMT-1, in vitro proliferation inhibition, CTG (Table 20)
[2] = test system: NCI-N87 cells; assay: In vitro killing assay of the anti-Her2-ADC against NCI-N87 tumor cells (CTG); format: cell-based; settings: NCI-N87, in vitro proliferation inhibition, CTG (Table 21)

Substance	IC50 [1]	IC50 [2]
anti-Her2-ADC-08	2.59 nM	–
anti-Her2-ADC-12	–	5.8 nM
anti-Her2-ADC-14	–	0.472 nM
